{"source": "patent US5763404A", "about": "“Methods for using LHRH antagonists with low histamine release” (priority 1995, dated 1998)", "origin": "cited, not measured here", "test_system": "rats", "conditions": "administered to rats; cited from earlier work", "data": [{"substance": "[N-Ac-D-2-Nal^1,D-4-F-Phe^2,D-Trp^3,D-Arg^6 ]-LHRH", "values": [{"measurement": "edema", "result": "caused edema of the face and extremities"}]}]}
